The results in this text go back to patent US10351558B2, “Factor IXa inhibitors” (Merck Sharp & Dohme Corp., priority 2015, dated 2019).

Protein sequences, listed by entry. Tags and fused reporters are not part of them. Residues count along the entry.
UniProt P00740, 227-461: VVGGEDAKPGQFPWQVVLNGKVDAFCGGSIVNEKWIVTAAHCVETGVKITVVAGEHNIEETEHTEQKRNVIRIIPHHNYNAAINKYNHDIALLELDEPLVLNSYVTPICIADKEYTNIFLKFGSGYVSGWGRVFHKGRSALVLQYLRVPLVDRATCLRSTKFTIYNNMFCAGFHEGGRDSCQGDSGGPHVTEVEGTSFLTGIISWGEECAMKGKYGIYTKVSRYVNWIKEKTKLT
UniProt P00740, 47-191 partner: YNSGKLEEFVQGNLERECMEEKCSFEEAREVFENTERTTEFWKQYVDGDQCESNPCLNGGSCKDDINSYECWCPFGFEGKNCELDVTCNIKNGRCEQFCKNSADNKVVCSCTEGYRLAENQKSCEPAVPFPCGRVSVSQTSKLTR

One may read the IC50 as the concentration needed to halve the response being measured. High values mean a need for much substance, low ones inhibition by little substance.

For this assay, the target named is hFIXa (Homo sapiens (Human), UniProt P00740). The experiment in a line: Determination of inhibitory activity against Factor IXa (cleavage of fluorescent peptide CH3SO2-D-CHG-Gly-Arg-AFC). Type of assay: biochemical.

Regarding `Cc1ccc2c(c1)nc1n2C[C@](C)(NC(=O)c2ccc(-n3cnc4cc(C(N)=O)ccc43)cc2Cl)CC1` [Example 75], the IC50 amounted to 8.92 nM.

`Cc1ccc2c(c1)nc1n2C[C@](C)(NC(=O)c2ccc(-n3cnc4ccc(C(N)=O)cc43)cc2Cl)CC1` [Example 76] registered an IC50 of 9.39 nM.

The compound `Cc1ccc2c(c1)nc1n2C[C@](C)(NC(=O)c2ccc(-n3cnc4ccc(C(=O)O)cc43)cc2Cl)CC1` [Example 77] gave an IC50 of 15.9 nM. Against the preceding compound, the IC50 is about 1.7-fold higher.

As to `Cc1ccc2c(c1)nc1n2C[C@](C)(NC(=O)c2ccc(-n3cnc4cc(C(=O)O)ccc43)cc2Cl)CC1` [Example 78], the half-inhibitory concentration (IC50) was 10.2 nM.

As for `Cc1ccc2c(c1)nc1n2CC(NC(=O)c2ccc(-n3cnc(C)n3)cc2Cl)(c2ccc(F)cc2)CC1` (centres unmarked) [Example 79], the IC50 is 14.1 nM.

Regarding `Cc1ccc2c(c1)nc1n2C[C@@](NC(=O)c2ccc(-n3cnc(C)n3)cc2Cl)(c2ccccc2)CC1F` (some centres unmarked) [Example 80], the 50% inhibitory concentration (IC50) was 9.14 nM.

Compound `Cc1ccc2c(c1)nc1n2CC(NC(=O)c2ccc(-n3cnc(C)n3)cc2Cl)(c2cccc(F)c2)CC1` (centres unmarked) [Example 81] gave a 50% inhibitory concentration (IC50) of 8.2 nM.

In the case of `Cc1ccc2c(c1)nc1n2C[C@@](NC(=O)c2c(Cl)cc(-n3cnnc3)cc2Cl)(c2ccccc2)CC1` [Example 82], the IC50 worked out at 4.03 nM.

The compound `Cc1cc2nc3n(c2cc1Cl)C[C@@](NC(=O)c1ccc(-n2cnnc2)cc1Cl)(c1ccccc1)CC3` [Example 83] registered an IC50 of 4.79 nM.

Consider `Cc1ccc2c(c1)nc1n2CC(NC(=O)c2ccc(-n3cnnc3)cc2Cl)(c2cccc(Cl)c2)CC1` (centres unmarked) [Example 84], for which inhibition was half-maximal at 5.66 nM (IC50).

For the compound `Cc1ccc2c(c1)nc1n2CC(NC(=O)c2ccc(-n3cnnc3)cc2Cl)(c2ccccc2)CC1(F)F` (centres unmarked) [Example 85], inhibition was half-maximal at 2.56 nM (IC50).

For the compound `Cc1ccc2c(c1)nc1n2CC(NC(=O)c2ccc(-n3cnnc3)cc2Cl)(c2cc(F)cc(F)c2)CC1` (centres unmarked) [Example 86], the 50% inhibitory concentration (IC50) amounted to 7.21 nM.

For the compound `Cc1ccc2c(c1)nc1n2C[C@@](NC(=O)c2ccc(-n3cnc(C4CC4)n3)cc2Cl)(c2ccccc2)CC1` [Example 87], the IC50 was found to be 12.6 nM.

In turn, `Cc1ccc2c(c1)nc1n2C[C@@](NC(=O)c2ccc(-n3cnnc3)cc2Cl)(c2cccc(C(=O)O)c2)CC1` [Example 88] returned an IC50 of 2.86 nM.

`CNC(=O)c1ccc2ncn(-c3ccc(C(=O)N[C@]4(C)CCc5nc6cc(C)ccc6n5C4)c(Cl)c3)c2c1` [Example 89] had an IC50 of 10.2 nM.

`Cc1ccc2c(c1)nc1n2C[C@@](NC(=O)c2ccc(-n3cc(CCO)nn3)cc2Cl)(c2ccccc2)CC1` [Example 90] came in with a 50% inhibitory concentration (IC50) of 8.83 nM.

`CNC(=O)c1ccc2c(c1)ncn2-c1ccc(C(=O)N[C@]2(C)CCc3nc4cc(C)ccc4n3C2)c(Cl)c1` [Example 91]: half-maximal inhibition (IC50) required 11.5 nM.

The compound `Cc1ccc2c(c1)nc1n2C[C@@](NC(=O)c2ccc(-n3cnc(C)n3)cc2Cl)(c2ccc(Cl)cc2)CC1` [Example 92] yielded an IC50 of 17.4 nM. This IC50 is about 1.5-fold higher than that of the compound before.

As to `Cc1ccc2c(c1)nc1n2C[C@@](NC(=O)c2ccc(-n3cnc(C)n3)cc2Cl)(c2cccc(Cl)c2)CC1` [Example 93], the IC50 stood at 11.4 nM.

As for `Cc1ccc2c(c1)nc1n2C[C@@](NC(=O)c2c(Cl)cc(-n3cnc(C)n3)cc2Cl)(c2ccccc2)CC1` [Example 94], the 50% inhibitory concentration (IC50) was 3.83 nM. Compared with the last compound, the IC50 is about 3-fold lower.

On to `Cc1ccc2c(c1)nc1n2CC(NC(=O)c2ccc(-n3cnc(C)n3)cc2Cl)(c2cncc(Cl)c2)CC1` (centres unmarked) [Example 95], for which half-maximal inhibition (IC50) was put at 15 nM.

Regarding `Cc1ccc2c(c1)nc1n2CC(NC(=O)c2ccc(-n3cnc(C)n3)cc2Cl)(c2cc(F)cc(F)c2)CC1` (centres unmarked) [Example 96], the half-maximal inhibitory concentration (IC50) is 11.6 nM.

`Cc1ccc2c(c1)nc1n2CC(NC(=O)c2ccc(-n3cnc(C)n3)cc2Cl)(c2ccccc2)CC1(F)F` (centres unmarked) [Example 97] returned a 50% inhibitory concentration (IC50) of 2.82 nM.

Regarding `Cc1ccc2c(c1)nc1n2C[C@@](NC(=O)c2ccc(-n3cnnc3)cc2Cl)(c2ccc3ccccc3c2)CC1` [Example 98], it took 2.92 nM to reach half-maximal inhibition (IC50).

As to `Cc1ccc2c(c1)nc1n2CC(NC(=O)c2ccc(-n3cnc(C)n3)cc2Cl)(c2cccc(C(=O)O)c2)CC1` (centres unmarked) [Example 99], the IC50 was 4.27 nM.

Regarding `Cc1ccc2c(c1)nc1n2C[C@@](NC(=O)c2ccc(-n3cnc(C)n3)cc2Cl)(c2ccc(C(=O)O)cc2)CC1` [Example 100], the IC50 worked out at 6.6 nM.

As to `Cc1ccc2c(c1)nc1n2C[C@@](NC(=O)c2ccc(-n3cnc(C)n3)cc2Cl)(c2ccc3ccccc3c2)CC1` [Example 101], the 50% inhibitory concentration (IC50) is 16.2 nM. Against the preceding compound, the IC50 is about 2.5-fold higher.

`Cc1ccc2c(c1)nc1n2C[C@@](NC(=O)c2ccc(-n3cnn(C)c3=O)cc2Cl)(c2ccccc2)CC1(F)F` [Example 102] registered an IC50 of 3.61 nM.

For `Cc1ccc2c(c1)nc1n2C[C@@](NC(=O)c2ccc(-n3cnnc3)cc2Cl)(c2cccc(C(F)(F)F)c2)CC1` [Example 103], the IC50 came out at 7.26 nM.

Consider `Cc1ccc2c(c1)nc1n2C[C@@](NC(=O)c2ccc(-n3cnc(C)n3)cc2Cl)(c2cccc(C(F)(F)F)c2)CC1` [Example 105], for which the IC50 was determined as 11.5 nM. This IC50 lies about 1.6-fold higher than the previous one.

On to `Cc1ccc2c(c1)nc1n2CC(NC(=O)c2ccc(-n3cnnc3)cc2Cl)(c2cccc(OC(F)(F)F)c2)CC1` (centres unmarked) [Example 106], for which the IC50 was 13.8 nM.

The compound `Cc1ccc2c3c([nH]c2c1)C[C@@H]1CC[C@H]3[C@@H]1NC(=O)c1ccc(-n2cnnc2)cc1Cl` [Example 107, 2-chloro-N-((7S,10R,11R)-3-methyl-5,6,7,8,9,10-hexahydro-7,10-methanocyclohepta[b]indol-11-yl)-4-(4H-1,2,4-triazol-4-yl)benzamide] gave an IC50 of 54.3 nM.

For `Cc1ccc2c3c([nH]c2c1)CCC(NC(=O)c1ccc(-n2cnnc2)cc1Cl)(c1ccccc1)C3` (centres unmarked) [Example 108], 17.9 nM corresponded to half-maximal inhibition (IC50). Against the preceding compound, the IC50 is about 3-fold lower.

The compound `Cc1ccc2c3c([nH]c2c1)CCC(NC(=O)c1ccc(-n2cnnc2)cc1Cl)(c1cccc(F)c1)C3` (centres unmarked) [Example 109] returned an IC50 of 8.4 nM.

In turn, `Cc1ccc2c3c([nH]c2c1)CCC(NC(=O)c1ccc(-n2cnnc2C)cc1Cl)(c1cccc(F)c1)C3` (centres unmarked) [Example 110] returned an IC50 of 11.2 nM.

Regarding `Cc1cc2[nH]c3c(c2cc1C)CC(NC(=O)c1ccc(-n2cnnc2)cc1Cl)(c1cccc(F)c1)CC3` (centres unmarked) [Example 111], the half-inhibitory concentration (IC50) worked out at 16.6 nM.

In turn, `Cc1ccc2c3c([nH]c2c1)CCC(NC(=O)c1ccc(-n2cnnc2C)cc1Cl)(c1cccc(Cl)c1)C3` (centres unmarked) [Example 112] displayed a half-inhibitory concentration (IC50) of 6.43 nM.

Consider `Cc1ccc2c3c([nH]c2c1)CCC(NC(=O)c1c(Cl)cc(-n2cnnc2)cc1Cl)(c1cccc(F)c1)C3` (centres unmarked) [Example 113], for which it took 4.7 nM to reach half-maximal inhibition (IC50).

In turn, `Cc1ccc2c3c([nH]c2c1)CCC(NC(=O)c1ccc(-n2cnnc2)cc1Cl)(c1cc(F)cc(Cl)c1)C3` (centres unmarked) [Example 114] had an IC50 of 15.2 nM.

The compound `Cc1cc(O)c2c3c(nn2c1)CCC(NC(=O)c1c(C)cc(-n2cnnc2)cc1Cl)(c1ccccc1)C3` (centres unmarked) [Example 115] registered an IC50 of 13.9 nM.

The compound `Cc1ccc2c3c([nH]c2c1)CC[C@](NC(=O)c1c(Cl)cc(-n2cnc(C)n2)cc1Cl)(c1nc(C)c(C)s1)C3` [Example 116] showed an IC50 of 13.6 nM.

The compound `Cc1ccc2c3c([nH]c2c1)CCC(NC(=O)c1c(Cl)cc(-n2cnnc2)cc1Cl)(c1cc(F)cc(Cl)c1)C3` (centres unmarked) [Example 117] yielded an IC50 of 6.85 nM.

In the case of `Cc1ccc2c3c(n(CC(=O)O)c2c1)CC[C@](NC(=O)c1ccc(-n2cnc(C)n2)cc1Cl)(c1cccc(F)c1)C3` [Example 118], half-maximal inhibition (IC50) required 8.59 nM.

The compound `O=C(O)Cn1c2c(c3ccc(Cl)cc31)C[C@@](NC(=O)c1ccc(-n3cnnc3)cc1Cl)(c1cccc(F)c1)CC2` [Example 119] came in with a half-maximal inhibitory concentration (IC50) of 1.17 nM.
